Data reported in PubChem BioAssay.
Only a part is listed here, and it is no random draw. Activity calls are given as the source filed them.

Protein sequences, listed by entry. Tags and fused reporters are not part of them. Lines headed by an entry give the natural chain unless they say otherwise; changes in a name come on top.
UniProt Q04721: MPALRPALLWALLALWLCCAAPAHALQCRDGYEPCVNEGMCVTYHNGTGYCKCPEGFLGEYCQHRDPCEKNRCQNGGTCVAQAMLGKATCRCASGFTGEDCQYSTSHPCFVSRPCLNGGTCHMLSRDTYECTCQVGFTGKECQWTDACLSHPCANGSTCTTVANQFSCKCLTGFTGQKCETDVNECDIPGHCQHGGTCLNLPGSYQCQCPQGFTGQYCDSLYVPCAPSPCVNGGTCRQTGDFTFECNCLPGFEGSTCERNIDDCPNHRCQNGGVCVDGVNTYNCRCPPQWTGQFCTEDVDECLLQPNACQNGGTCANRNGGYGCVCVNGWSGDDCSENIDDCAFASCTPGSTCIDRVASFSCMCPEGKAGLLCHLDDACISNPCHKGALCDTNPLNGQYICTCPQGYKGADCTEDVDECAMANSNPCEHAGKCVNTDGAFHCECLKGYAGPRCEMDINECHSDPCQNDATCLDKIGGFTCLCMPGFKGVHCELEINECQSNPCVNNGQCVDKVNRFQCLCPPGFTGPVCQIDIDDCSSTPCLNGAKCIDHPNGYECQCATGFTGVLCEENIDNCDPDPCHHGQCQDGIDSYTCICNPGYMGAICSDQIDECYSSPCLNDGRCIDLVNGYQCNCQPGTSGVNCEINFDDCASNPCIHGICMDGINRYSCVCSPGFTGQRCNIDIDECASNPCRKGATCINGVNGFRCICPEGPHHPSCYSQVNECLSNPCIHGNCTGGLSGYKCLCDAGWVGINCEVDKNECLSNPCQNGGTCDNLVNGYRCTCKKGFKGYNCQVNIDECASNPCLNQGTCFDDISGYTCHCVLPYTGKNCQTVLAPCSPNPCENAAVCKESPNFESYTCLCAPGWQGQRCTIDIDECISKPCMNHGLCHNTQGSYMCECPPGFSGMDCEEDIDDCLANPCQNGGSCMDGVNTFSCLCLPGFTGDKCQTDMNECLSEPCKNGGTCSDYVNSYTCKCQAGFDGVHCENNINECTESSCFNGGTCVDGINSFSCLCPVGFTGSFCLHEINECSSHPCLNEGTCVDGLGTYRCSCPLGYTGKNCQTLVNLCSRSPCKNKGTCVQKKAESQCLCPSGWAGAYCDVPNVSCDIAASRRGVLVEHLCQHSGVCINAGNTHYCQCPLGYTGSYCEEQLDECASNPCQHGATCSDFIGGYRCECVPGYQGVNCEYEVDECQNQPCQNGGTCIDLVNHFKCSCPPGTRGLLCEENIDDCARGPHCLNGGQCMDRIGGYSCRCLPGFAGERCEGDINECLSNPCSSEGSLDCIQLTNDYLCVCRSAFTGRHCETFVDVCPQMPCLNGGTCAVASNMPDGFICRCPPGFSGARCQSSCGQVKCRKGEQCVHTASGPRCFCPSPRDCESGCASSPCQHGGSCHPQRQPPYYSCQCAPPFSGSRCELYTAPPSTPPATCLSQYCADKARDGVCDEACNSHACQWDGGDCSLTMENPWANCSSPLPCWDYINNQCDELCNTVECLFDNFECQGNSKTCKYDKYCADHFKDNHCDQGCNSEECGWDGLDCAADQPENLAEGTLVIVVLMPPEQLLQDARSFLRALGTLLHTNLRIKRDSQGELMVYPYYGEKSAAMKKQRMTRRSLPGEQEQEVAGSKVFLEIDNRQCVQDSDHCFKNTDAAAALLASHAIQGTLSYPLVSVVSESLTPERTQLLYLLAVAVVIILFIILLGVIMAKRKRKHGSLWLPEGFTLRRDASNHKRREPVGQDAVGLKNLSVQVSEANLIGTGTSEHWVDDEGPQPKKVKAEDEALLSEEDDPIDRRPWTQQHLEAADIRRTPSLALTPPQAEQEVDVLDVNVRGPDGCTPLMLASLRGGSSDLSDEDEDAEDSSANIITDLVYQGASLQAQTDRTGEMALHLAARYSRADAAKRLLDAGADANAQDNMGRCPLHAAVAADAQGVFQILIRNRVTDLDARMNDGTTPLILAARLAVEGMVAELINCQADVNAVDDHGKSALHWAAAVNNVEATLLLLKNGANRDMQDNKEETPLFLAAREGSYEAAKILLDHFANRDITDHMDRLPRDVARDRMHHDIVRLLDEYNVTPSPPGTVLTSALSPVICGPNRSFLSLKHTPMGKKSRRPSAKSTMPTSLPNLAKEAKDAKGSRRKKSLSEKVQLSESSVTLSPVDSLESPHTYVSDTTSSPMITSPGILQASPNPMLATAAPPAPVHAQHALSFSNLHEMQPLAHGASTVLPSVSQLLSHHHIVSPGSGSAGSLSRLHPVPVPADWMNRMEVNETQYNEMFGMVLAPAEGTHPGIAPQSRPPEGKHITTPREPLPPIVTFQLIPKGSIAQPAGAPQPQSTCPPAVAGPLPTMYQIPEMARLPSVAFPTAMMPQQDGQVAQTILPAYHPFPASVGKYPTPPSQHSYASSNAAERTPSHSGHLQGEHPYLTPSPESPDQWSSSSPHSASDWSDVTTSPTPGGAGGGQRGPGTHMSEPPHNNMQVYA
UniProt Q02297: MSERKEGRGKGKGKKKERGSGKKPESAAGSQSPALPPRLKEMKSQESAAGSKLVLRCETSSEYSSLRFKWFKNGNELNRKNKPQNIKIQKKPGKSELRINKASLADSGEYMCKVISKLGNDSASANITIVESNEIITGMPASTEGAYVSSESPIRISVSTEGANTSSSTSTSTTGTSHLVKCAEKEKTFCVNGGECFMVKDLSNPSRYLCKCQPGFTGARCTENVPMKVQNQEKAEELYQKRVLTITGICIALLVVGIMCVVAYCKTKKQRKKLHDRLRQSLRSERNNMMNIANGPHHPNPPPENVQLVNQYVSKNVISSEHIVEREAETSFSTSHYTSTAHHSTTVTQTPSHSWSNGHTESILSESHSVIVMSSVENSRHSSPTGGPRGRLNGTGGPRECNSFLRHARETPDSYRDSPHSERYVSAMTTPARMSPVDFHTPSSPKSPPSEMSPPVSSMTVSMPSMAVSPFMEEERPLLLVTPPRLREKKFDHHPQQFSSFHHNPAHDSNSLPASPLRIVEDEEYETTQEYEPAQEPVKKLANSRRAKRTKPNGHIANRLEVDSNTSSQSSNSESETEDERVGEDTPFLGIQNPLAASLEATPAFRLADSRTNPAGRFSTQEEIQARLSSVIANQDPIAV
UniProt Q8NFQ8: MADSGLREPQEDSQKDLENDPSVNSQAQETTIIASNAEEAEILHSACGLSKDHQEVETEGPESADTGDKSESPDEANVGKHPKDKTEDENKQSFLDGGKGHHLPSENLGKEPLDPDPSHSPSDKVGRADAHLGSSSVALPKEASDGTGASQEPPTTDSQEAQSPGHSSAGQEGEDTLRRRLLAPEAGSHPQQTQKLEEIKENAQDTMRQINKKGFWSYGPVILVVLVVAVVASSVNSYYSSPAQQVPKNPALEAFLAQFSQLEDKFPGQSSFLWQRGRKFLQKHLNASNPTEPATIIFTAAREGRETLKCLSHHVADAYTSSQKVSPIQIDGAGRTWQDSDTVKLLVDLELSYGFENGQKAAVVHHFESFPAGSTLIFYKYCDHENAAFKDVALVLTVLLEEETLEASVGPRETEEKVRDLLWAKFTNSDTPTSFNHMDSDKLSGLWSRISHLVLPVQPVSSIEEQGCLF
UniProt Q9UM47, whole entry, looked up: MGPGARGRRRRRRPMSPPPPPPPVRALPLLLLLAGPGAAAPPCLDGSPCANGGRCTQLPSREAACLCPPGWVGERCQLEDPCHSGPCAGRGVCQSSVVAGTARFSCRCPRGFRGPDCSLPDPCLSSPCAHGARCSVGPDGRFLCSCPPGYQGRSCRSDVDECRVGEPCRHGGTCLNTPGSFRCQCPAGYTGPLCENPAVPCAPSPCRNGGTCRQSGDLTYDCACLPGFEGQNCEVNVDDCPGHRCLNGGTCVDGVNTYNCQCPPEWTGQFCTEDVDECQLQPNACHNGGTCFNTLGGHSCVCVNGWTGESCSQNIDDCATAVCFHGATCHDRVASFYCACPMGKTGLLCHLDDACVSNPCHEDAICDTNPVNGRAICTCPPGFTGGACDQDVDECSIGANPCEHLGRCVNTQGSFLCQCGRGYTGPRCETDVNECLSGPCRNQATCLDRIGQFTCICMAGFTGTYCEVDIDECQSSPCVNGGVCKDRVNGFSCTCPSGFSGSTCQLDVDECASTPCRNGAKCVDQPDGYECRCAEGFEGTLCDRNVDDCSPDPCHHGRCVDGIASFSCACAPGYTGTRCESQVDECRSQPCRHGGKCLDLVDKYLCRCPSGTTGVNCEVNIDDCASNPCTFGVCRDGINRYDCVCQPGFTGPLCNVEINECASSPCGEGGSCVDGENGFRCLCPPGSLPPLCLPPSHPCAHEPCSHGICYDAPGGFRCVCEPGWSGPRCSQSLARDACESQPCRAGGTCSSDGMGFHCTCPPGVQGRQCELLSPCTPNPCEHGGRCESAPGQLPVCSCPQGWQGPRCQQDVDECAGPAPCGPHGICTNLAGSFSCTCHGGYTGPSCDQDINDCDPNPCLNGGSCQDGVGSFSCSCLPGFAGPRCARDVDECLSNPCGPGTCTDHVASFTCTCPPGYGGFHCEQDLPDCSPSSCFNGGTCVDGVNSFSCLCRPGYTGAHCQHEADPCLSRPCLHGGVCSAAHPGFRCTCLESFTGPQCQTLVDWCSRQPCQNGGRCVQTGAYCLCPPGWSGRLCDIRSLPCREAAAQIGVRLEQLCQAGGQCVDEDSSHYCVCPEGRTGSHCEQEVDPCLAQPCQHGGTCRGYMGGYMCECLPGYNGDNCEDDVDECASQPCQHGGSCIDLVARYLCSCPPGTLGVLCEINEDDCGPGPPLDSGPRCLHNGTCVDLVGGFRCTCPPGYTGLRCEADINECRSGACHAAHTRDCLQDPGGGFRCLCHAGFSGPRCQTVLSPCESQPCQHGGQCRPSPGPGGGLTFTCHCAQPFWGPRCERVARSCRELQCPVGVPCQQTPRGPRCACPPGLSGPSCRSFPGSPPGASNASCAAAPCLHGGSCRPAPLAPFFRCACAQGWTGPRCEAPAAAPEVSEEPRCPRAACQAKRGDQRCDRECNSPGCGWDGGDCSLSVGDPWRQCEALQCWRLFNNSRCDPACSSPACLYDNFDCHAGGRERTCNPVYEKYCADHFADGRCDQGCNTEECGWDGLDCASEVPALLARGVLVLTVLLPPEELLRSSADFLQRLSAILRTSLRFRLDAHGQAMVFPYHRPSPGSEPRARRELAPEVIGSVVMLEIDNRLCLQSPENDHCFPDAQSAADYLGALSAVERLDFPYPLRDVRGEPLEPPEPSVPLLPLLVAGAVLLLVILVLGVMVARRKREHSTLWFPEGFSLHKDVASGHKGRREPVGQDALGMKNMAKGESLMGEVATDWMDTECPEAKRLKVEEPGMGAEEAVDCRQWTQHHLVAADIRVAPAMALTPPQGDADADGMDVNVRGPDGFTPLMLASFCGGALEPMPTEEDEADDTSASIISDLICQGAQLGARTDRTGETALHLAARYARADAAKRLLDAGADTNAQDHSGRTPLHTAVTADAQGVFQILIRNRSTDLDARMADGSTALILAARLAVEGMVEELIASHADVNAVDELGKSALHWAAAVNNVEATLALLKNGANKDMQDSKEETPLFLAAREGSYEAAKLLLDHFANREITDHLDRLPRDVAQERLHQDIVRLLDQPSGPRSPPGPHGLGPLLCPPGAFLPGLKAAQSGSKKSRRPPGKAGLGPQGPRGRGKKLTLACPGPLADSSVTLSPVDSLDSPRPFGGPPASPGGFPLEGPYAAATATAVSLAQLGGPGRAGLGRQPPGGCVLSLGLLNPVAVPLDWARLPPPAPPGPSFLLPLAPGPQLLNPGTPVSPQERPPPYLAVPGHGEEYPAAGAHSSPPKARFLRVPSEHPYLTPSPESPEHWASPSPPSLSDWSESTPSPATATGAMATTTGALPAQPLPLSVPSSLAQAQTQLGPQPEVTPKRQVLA

Key:
[1] = binders of probe aFSTL3 on microarray, primary screen, stem cell growth factor project, biochemical, small-molecule microarray, fluorescence 635/667 (AID 1064); details: higher = more signal;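 note: measures binding of the biotinylated anti-FSTL3 antibody to printed compounds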
[2] = binders from COS7 lysate, DM2A8 probe, primary screen, torsin A project, cell lysate, small-molecule microarray, fluorescence 635/667 (AID 1065); details: higher = more signal, COS7 lysate expressing mutant human TOR1A
[3] = binders of probe aFGF2 on microarray, primary screen, stem cell growth factor project, biochemical, small-molecule microarray, fluorescence 635/667 (AID 1067); details: higher = more signal;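 note: measures binding of biotinylated aFGF2 protein to printed compounds on slides; z-score merges feature fluorescence and signal-to-noise across triplicate slides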
[4] = binders of probe aFGF10 on microarray, primary screen, stem cell growth factor project, biochemical, small-molecule microarray, fluorescence 635/667 (AID 1071); details: higher = more signal;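 note: score merges 667 nm spot intensity and signal to noise from triplicate slides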
[5] = biological target: Neurogenic locus notch homolog protein 2 (Homo sapiens) (UniProt Q04721); test: Notch2 binders on small-molecule microarrays, primary screen, biochemical, small-molecule microarray, 635 nm fluorescence, stem cell growth factors (AID 1073); details: Notch2 binding, higher = more signal
[6] = biological target: Pro-neuregulin-1, membrane-bound isoform (Homo sapiens) (UniProt Q02297); test: NRG1 binders on small-molecule microarrays, primary screen, psychiatric disease protein project, biochemical, small-molecule microarray, fluorescence 635/667 (AID 1075); details: NRG1 binding, 635 nm fluorescence, higher = more signal;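 note: score combines 667 nm spot fluorescence with signal to noise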
[7] = test system: Neuregulin-1 EGF-like domain; test: binders of neuregulin-1 EGF-like domain, primary screen, biochemical, small-molecule microarray, 635 nm fluorescence (AID 1081); details: small-molecule microarray binding, higher = more signal;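 note: binding of the protein to compounds printed on small-molecule microarray slides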
[8] = FRG1 promoter luciferase signal modulators, primary screen, FRG1 inhibition for FSHD, cell-based, C2C12 myotubes, firefly/Renilla luciferase, luminescence (AID 1084); details: higher = more signal, called active from +8 up or from −8 down
[9] = binders of probe aFST on microarray, primary screen, stem cell growth factor project, biochemical, small-molecule microarray, fluorescence 635/667 (AID 1086); details: higher = more signal;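 note: score merges 667 nm fluorescence with signal-to-noise of each printed compound spot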
[10] = binders of probe aHhip on microarray, primary screen, stem cell growth factor project, biochemical, small-molecule microarray, fluorescence 635/667 (AID 1087); details: higher = more signal;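 note: score merges spot fluorescence at 667nm with spot signal to noise ratio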
[11] = test system: PRMT1 (protein arginine N-methyltransferase 1); test: PRMT1 binders on small-molecule microarrays, primary screen, biochemical, small-molecule microarray, 635 nm fluorescence (AID 1088); details: small-molecule microarray binding, higher = more signal;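 note: binding of Prmt1 protein to compounds spotted on small-molecule microarray slides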
[12] = yeast growth modulation, basal conditions, primary screen, YJM789 clinical isolate, OD600, 24 h (AID 1089);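 note: growth of clinical yeast isolate S. cerevisiae YJM 789 seeded 1000 cells per well; test concentration not given here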; details: S. cerevisiae YJM789 growth, higher = more signal, called active from +8 up or from −8 down
[13] = biological target: Torsin-1A-interacting protein 2 (Homo sapiens) (UniProt Q8NFQ8); test: LULL1 binders on small-molecule microarray, primary screen, cell lysate, human LULL1 lysate, 635/667 nm fluorescence (AID 1092); details: hLULL1 lysate binding, 635 nm fluorescence, higher = more signal;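 note: probe is lysate of COS7 cells overexpressing human LULL1; score merges per-feature 667 nm fluorescence with signal-to-noise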
[14] = small-molecule microarray binders of probe aLefty2, primary screen, biochemical, biotinylated probe, 635/667 nm fluorescence (AID 1094); details: higher = more signal;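 note: score merges spot fluorescence near 667 nm with spot signal-to-noise ratio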
[15] = test system: Noggin (protein binding on small-molecule microarray); test: Noggin binders on small-molecule microarray, primary screen, biochemical, 635/667 nm fluorescence (AID 1095); details: 635 nm fluorescence, higher = more signal;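 note: score merges 667 nm feature fluorescence with signal to noise over triplicate slides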
[16] = biological target: Neurogenic locus notch homolog protein 3 (Homo sapiens) (UniProt Q9UM47); test: NOTCH3 binders on small-molecule microarray, primary screen, biochemical, 635/667 nm fluorescence (AID 1096); details: NOTCH3 binding, 635 nm fluorescence, higher = more signal
[17] = small-molecule microarray binders of probe aEGFR, primary screen, biochemical, biotinylated probe, 635/667 nm fluorescence (AID 1097); details: higher = more signal;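 note: probe is a biotinylated anti-EGFR antibody binding compounds printed on slides; score combines fluorescence near 667 nm and signal to noise of each spot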
[18] = small-molecule microarray binders of probe aDKK1, primary screen, biochemical, biotinylated probe, 635/667 nm fluorescence (AID 1099); details: higher = more signal;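 note: score merges 667nm spot fluorescence with signal to noise across triplicate slides; reference of the scale not given here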
[19] = small-molecule microarray binders of probe aCHRDL2, primary screen, biochemical, biotinylated probe, 635/667 nm fluorescence (AID 1100); details: higher = more signal
[20] = splicing luciferase reporter signal modulators, primary screen, spliceosome inhibition project, cell-based, HEK293, splice +/- reporter (AID 1101); details: luminescence, 24 h, higher = more signal, called active from +8 up or from −8 down;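 note: HEK293 cells carrying a splicing-competent luciferase reporter gene; test concentration not given here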

Row | SMILES | composite z-score [1] | composite z-score [2] | composite z-score [3] | composite z-score [4] | composite z-score [5] | composite z-score [6] | composite z-score [7] | z-score [8] | composite z-score [9] | composite z-score [10] | composite z-score [11] | z-score [12] | composite z-score [13] | composite z-score [14] | composite z-score [15] | composite z-score [16] | composite z-score [17] | composite z-score [18] | composite z-score [19] | z-score [20]
1 | COP(=O)(/N=C1/CC(c2ccc(CO)cc2)=CC(C2CC2)N1Cc1sc2ccccc2c1Cl)OC (stereo not given) | 0.84 | 1.71 | 0.085 | 1.18 | 1.36 | 1.82 | 0.698 | inactive: -2.75 | 1.34 | -0.0546 | 0.811 | inactive: -4.7 | 0.298 | 0.714 | 0.65 | 1 | 0.733 | 1.43 | 1.24 | inactive: -2.77
2 | COP(=O)(/N=C1/CC(CCCO)=CC(c2ccc(CN3CCCC3)cc2)N1Cc1sc2ccccc2c1Cl)OC (stereo not given) | 1.19 | 1.21 | 0.177 | 0.217 | -0.062 | 0.0541 | -0.456 | inactive: 1.6 | 1.73 | 0.141 | 0.101 | inactive: 0.922 | 0.11 | 0.555 | 0.317 | 0.127 | 0.222 | 1.11 | 1.1 | inactive: 0.0951
3 | COP(=O)(/N=C1/CC(c2ccc(CO)cc2)=CC(C2CC2)N1C)OC (stereo not given) | -0.435 | 0.281 | -0.0525 | 0.275 | -0.223 | 1.94 | 0.186 | inactive: 0.116 | 0.0588 | 0.481 | -0.0444 | inactive: -2.03 | 0.366 | -0.111 | 0.461 | -0.067 | -0.0687 | 0.294 | -0.0139 | inactive: -1.16
4 | O=P(/N=C1/CC(CCCO)=CC(c2cccs2)N1Cc1cc2c(cc1Br)OCO2)(Oc1ccccc1)Oc1ccccc1 (stereo not given) | -0.292 | 0.237 | -0.0342 | 0.795 | 1.58 | 1.81 | 1.18 | inactive: -2.92 | 0.977 | 0.213 | 1.35 | inactive: 0.141 | 3.35 | 0.25 | 0.317 | 1.1 | 0.0238 | -0.136 | 0.628 | inactive: -0.103
5 | COP(=O)(/N=C1/CC(CCCO)=CC(C2CC2)N1Cc1cccc(OC(F)(F)F)c1)OC (stereo not given) | -0.0191 | -0.0918 | -0.116 | -0.0523 | -0.618 | 0.729 | -0.389 | inactive: -1.07 | 0.226 | 0.0052 | -0.0741 | inactive: -1.24 | 1.26 | -0.152 | 0.0186 | -0.261 | -0.0422 | -0.0727 | 0.5 | inactive: -1.65
6 | CC1C=C(CCCO)C/C(=N/P(=O)(Oc2ccccc2)Oc2ccccc2)N1Cc1cccc(OC(F)(F)F)c1 (stereo not given) | -0.252 | 0.107 | -0.0691 | -0.137 | 0.0809 | 1.37 | 0.873 | inactive: -0.332 | 0.429 | 0.527 | 0.908 | inactive: -0.367 | 2.92 | -0.0924 | 0.421 | 0.322 | -0.0688 | 0.164 | 0.0318 | inactive: -0.0742
7 | COP(=O)(/N=C1/CC(CCCO)=CC(C2CC2)N1Cc1sc2ccccc2c1Cl)OC (stereo not given) | 1.98 | -0.0324 | 0.122 | 0.931 | 1.13 | 0.96 | 0.699 | inactive: 0.125 | 1.33 | 1.42 | 1.38 | inactive: -1.09 | 1.32 | 1.02 | 0.392 | 1.13 | 0.69 | 1.1 | 1.25 | inactive: -0.0935
8 | COP(=O)(/N=C1/CC(CCCO)=CC(c2ccc(CN3CCCC3)cc2)N1Cc1cccc(OC(F)(F)F)c1)OC (stereo not given) | 0.411 | 1.02 | 0.0717 | 0.802 | 1.02 | 1.8 | 0.628 | inactive: -1.25 | 0.814 | 0.351 | 1.18 | inactive: -0.888 | 1.37 | 0.195 | 0.996 | 0.808 | 0.0378 | 0.842 | 0.441 | inactive: -1.05
9 | O=P(/N=C1/CC(CCCO)=CC(c2cccs2)N1Cc1cccc(OC(F)(F)F)c1)(Oc1ccccc1)Oc1ccccc1 (stereo not given) | 0.352 | 0.882 | 0.0198 | 0.307 | 1.15 | 1.57 | 0.983 | inactive: -0.793 | 0.578 | -0.0645 | 1.58 | inactive: 0.0167 | 2.71 | 0.131 | -0.0666 | 0.703 | -0.0476 | 0.511 | 0.737 | inactive: -0.656
10 | CN1/C(=N\P(=O)(Oc2ccccc2)Oc2ccccc2)CC(c2ccc(CO)cc2)=CC1c1cccs1 (stereo not given) | -0.811 | 0.857 | -0.0274 | 0.231 | 0.567 | 2.38 | 1.02 | inactive: -4.99 | -0.213 | -0.4 | 0.714 | inactive: 0.0787 | 2.88 | -0.0894 | -0.929 | 0.643 | 0.156 | 0.29 | 0.625 | inactive: -0.147
11 | O=P(/N=C1/CC(CCCO)=CC(C2CC2)N1Cc1sc2ccccc2c1Cl)(Oc1ccccc1)Oc1ccccc1 (stereo not given) | 0.169 | -0.264 | -0.0036 | 0.345 | 0.828 | 1.82 | 1.05 | inactive: 0.354 | 0.657 | -0.0296 | 1.4 | inactive: 0.863 | 2.88 | 0.003 | 0.0223 | 0.705 | -0.0565 | 0.528 | 0.642 | inactive: -0.195
12 | CN1/C(=N\P(=O)(Oc2ccccc2)Oc2ccccc2)CC(CCCO)=CC1c1ccc(CN2CCCC2)cc1 (stereo not given) | -0.15 | 0.314 | 0.0243 | 0.977 | 1.23 | 2.11 | 0.702 | inactive: -0.55 | 0.193 | 0.245 | 0.633 | inactive: -0.739 | 2.67 | 0.103 | 1.01 | 1.13 | 0.224 | 0.733 | 0.626 | inactive: -0.518
13 | COP(=O)(/N=C1/CC(c2ccc(CO)cc2)=CC(C2CC2)N1Cc1cc2c(cc1Br)OCO2)OC (stereo not given) | -0.0398 | 0.0771 | -0.0363 | 0.924 | 0.662 | 1.27 | -0.202 | inactive: -2.81 | 0.86 | 0.273 | 0.697 | inactive: -2.59 | 1.7 | 0.173 | 0.475 | 0.426 | 0.0255 | 0.316 | 0.733 | inactive: -1.5
14 | O=P(/N=C1/CC(CCCO)=CC(C2CC2)N1Cc1cccc(OC(F)(F)F)c1)(Oc1ccccc1)Oc1ccccc1 (stereo not given) | -0.17 | -0.227 | -0.116 | -0.16 | -0.224 | 1.85 | 0.966 | inactive: 0.728 | 0.123 | -0.193 | 0.46 | inactive: -2.03 | 3.1 | -0.107 | 0.287 | -0.0317 | -0.179 | 0.0202 | 0.272 | inactive: 0.139
15 | COP(=O)(/N=C1/CC(c2ccc(CO)cc2)=CC(c2cccs2)N1C)OC (stereo not given) | 1.45 | 0.199 | -0.0006 | -0.0456 | -0.358 | 1.21 | 0.402 | inactive: 3.2 | 0.64 | 0.194 | 0.352 | inactive: 0.231 | 0.866 | 0.43 | 1.24 | -0.142 | 0.164 | 0.875 | 1.02 | inactive: -0.53
